# Data published in patent US7244744B2, “Piperidines” (Icagen, Inc., priority 2001, dated 2007).
# Chains of the proteins cited; added tags and fusions are not shown.
# UniProt Q9Y5Y9, whole entry: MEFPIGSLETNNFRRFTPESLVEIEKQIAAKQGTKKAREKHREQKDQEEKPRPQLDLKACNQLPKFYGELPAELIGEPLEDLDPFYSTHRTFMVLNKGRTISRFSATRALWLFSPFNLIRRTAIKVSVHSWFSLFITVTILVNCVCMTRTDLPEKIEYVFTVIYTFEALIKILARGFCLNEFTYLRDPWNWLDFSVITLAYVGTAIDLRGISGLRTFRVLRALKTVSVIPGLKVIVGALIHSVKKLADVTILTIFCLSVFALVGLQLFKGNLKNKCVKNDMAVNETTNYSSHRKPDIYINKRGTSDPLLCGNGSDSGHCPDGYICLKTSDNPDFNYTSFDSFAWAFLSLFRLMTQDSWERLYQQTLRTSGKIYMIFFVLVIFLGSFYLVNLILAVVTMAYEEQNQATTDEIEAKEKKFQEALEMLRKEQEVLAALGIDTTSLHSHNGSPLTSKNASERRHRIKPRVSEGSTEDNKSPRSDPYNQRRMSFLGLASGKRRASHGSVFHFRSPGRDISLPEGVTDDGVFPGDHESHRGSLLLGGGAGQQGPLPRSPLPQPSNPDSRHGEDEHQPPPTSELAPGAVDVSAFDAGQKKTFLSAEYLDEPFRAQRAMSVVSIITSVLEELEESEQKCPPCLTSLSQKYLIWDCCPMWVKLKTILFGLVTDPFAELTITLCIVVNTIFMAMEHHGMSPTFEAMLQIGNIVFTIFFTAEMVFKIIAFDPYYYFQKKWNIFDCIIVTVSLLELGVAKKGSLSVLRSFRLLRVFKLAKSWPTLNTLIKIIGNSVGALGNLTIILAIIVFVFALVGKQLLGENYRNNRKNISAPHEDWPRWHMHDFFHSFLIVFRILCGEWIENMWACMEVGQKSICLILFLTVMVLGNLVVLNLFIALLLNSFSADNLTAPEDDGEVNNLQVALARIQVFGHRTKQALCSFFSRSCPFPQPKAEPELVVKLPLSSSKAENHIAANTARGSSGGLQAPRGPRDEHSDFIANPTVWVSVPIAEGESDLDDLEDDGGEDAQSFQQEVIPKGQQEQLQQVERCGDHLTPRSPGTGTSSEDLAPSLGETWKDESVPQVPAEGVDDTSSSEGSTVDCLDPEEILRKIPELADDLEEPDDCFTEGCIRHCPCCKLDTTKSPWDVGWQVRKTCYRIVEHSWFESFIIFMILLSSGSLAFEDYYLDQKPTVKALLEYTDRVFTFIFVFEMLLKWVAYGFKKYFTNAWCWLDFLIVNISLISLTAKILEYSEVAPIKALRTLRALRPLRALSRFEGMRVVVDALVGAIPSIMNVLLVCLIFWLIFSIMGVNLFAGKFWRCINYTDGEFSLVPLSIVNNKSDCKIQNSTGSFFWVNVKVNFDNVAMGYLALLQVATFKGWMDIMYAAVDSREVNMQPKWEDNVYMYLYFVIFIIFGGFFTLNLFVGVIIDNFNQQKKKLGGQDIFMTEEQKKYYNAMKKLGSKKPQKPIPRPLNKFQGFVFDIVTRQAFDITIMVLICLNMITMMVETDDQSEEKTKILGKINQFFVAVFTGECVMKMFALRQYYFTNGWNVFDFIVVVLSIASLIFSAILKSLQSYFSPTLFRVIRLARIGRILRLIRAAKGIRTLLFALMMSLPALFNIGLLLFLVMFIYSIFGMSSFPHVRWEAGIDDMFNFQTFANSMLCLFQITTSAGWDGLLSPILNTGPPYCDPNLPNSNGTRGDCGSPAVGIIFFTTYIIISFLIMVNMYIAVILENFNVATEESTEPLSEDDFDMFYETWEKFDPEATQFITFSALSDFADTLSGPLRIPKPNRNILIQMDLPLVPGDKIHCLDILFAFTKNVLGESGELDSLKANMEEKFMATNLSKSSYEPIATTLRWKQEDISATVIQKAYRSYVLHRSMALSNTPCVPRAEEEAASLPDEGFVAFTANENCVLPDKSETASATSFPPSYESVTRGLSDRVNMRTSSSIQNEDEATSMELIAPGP
# pIC50: −log10 of the molar value. Only a part of the results on these compounds is given; other tests are left out.
# Target: PN3 (Homo sapiens, UniProt Q9Y5Y9)
# Assay: 14C Guanidinium Ion Influx Binding Assay (flux assay)
# Conditions: read-out: Activity in Flux Assay, activity towards PN3, PN3 stably expressed in a host cell line, deltamethrine 10 μM
# Protocol: 1.1 ^14C Guanidinium Ion Influx Binding Assay
# PN3 stably expressed in a host cell line were maintained in DMEM with 5% fetal bovine serum and 300 μg/ml G-418. The cells were subcultured and grown to confluence in 96-well plates 24-48 h before each experiment. After the growth medium was removed, the cells were washed with warm buffer (25 mM Hepes-Tris, 135 mM choline chloride, 5.4 mM potassium chloride, 0.98 mM magnesium sulfate, 5.5 mM glucose, and 1 mg/ml BSA, pH 7.4) and incubated in buffer on a 36° C. slide wanner for approximately 10 minutes. Various concentrations of the test compounds or standard sodium channel blockers (10 μM) and then deltamethrine (10 μM) were added to each well. After the cells were exposed to deltamethrine for 5 minutes, 5 μM of ^14C-guanidinium was added, incubated with the radioligand (30-60 min), washed with ice-cold buffer, and dissolved in 0.1N sodium hydroxide. The radioactivity and the protein concentration of each cell lysate were determined by liquid scintillation counting and the protein assay using Pierce BCA reagent.
row,Compound,pIC50
1,CCCCc1ccc(CN2CCC(n3c(=O)[nH]c4ccccc43)CC2)cc1,5.40 to 7.00
2,Cn1c(=O)n(C2CCN(Cc3ccccc3)CC2)c2ccccc21,5.00 to 5.39
